Test results as given in ChEMBL document CHEMBL5634198, “Structural Investigations of Phthalazinone Derivatives as Allosteric Inhibitors of Human DNA Methyltransferase 3A” (ACS Med Chem Lett, 2024).

Molecular target: DNA (cytosine-5)-methyltransferase 3A (Homo sapiens) (UniProt Q9Y6K1)
Assay: Inhibition of DNMT3A (unknown origin) using [3H]-SAM as substrate incubated for 1 hr by scintillation counter analysis relative to (4aS,8aR)-4-(3-(4-(4-(2H-tetrazol-5-yl)phenoxy)butoxy)-4-methoxyphenyl)-2-cycloheptyl-4a,5,8,8a-tetrahydrophthalazin-1(2H)-one
Conditions: concentration not given here

COc1ccc(C2=NN(C3CCCCCC3)C(=O)[C@@H]3CC=CC[C@H]23)cc1OCCCCOc1ccc(C#N)cc1
inhibition: > 4%
